Yeast mating assay 1: variants of the scFv Ab-14

The target is the same throughout: PDVDLGDISGINAS, from the HR2 region of SARS-CoV-2 spike.

Parent: Ab-14, a human scFv built as VH, a (GGGGS)3 linker, VL. Only the CDRs of the light chain vary.
VH: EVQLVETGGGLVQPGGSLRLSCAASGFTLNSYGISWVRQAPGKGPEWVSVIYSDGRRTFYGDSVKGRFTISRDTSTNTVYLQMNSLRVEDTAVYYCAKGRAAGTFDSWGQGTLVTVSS
VL: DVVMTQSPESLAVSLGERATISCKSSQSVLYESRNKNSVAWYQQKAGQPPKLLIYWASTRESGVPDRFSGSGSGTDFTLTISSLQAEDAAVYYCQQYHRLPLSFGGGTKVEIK

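The starting antibody came from a phage panning campaign against this peptide. AAYL50 was designed without a model: most single CDR substitutions and a random sample of double and triple ones. AlphaSeq pools MATa yeast showing the antibodies with MATalpha yeast showing the peptide. The frequency of each diploid, read from paired DNA barcodes, reflects how well the two displayed proteins bind. The ratio of observed to expected reads was calibrated, replicate by replicate, on BCL2-family standards whose Kd was known from biolayer interferometry. Each pool was mated in three replicate cultures.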

Sequences are complete VL domains. Numbers give log10(Kd / nM), so 0 is 1 nM and 3 is 1 µM. Smaller is tighter. Averages over replicates are reported, and they cover detected replicates only. "ND" marks a missing value. The strain was present, yet no cells mated with the target were sequenced in that replicate, which points to weak or no binding.

| VL | log10 Kd (nM) by replicate | mean, log10 nM | signal with controls |
|---|---|---|---|
| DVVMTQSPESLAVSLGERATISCKSSQSVLYESRRKNSVAWYQQKAGQPPKLLIYCASTPESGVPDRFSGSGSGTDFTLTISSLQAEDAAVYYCQQYHRLPLSFGGGTKVEIK | ND ND ND | ND | 3 of 9 (4.10) |
| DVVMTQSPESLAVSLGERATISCKCSQVVLYESRNKNSVAWYQQKAGQPPKLLIYWASTRESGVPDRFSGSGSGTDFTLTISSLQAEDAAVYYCQQYHRLYLSFGGGTKVEIK | 0.73 1.29 1.10 | 1.04 | 1 of 9 (4.59) |
| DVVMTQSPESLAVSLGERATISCKTSQSVLYESRNKNSVAWYQQKAGQPPKLLIYWASTRESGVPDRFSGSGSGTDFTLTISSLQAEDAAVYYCQQYHRLPLSFGGGTKVEIK | 1.06 1.07 1.00 | 1.04 | 0 of 9 |
| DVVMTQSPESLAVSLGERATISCIQSQSVLYWSRNKNSVAWYQQKAGQPPKLLIYWASTRESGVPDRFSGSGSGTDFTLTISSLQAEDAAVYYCQQYHRLPLSFGGGTKVEIK | 2.94 2.14 2.69 | 2.59 | 5 of 9 (4.26) |
| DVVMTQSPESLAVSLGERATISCKSSQSVLYESRNKNSVAWYQQKAGQPPKLLIYWAWTAESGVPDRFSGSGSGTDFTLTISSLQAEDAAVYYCQNYHRLPLSFGGGTKVEIK | 4.65 5.21 5.49 | 5.12 | 3 of 9 (4.62) |
| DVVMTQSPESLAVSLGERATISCKSSGSVLYESRNKNSVAWYQQKAGQPPKLLIYWASTLESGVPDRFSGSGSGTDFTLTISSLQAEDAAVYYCQQYHCLPLSFGGGTKVEIK | 6.72 3.99 ND | 5.35 | 5 of 9 (5.27) |
| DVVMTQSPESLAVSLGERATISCKSSQSVLYESRNKNSCAWYQQKAGQPPKLLIYWFSTRESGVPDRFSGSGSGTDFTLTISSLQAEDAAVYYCFQYHRLPLSFGGGTKVEIK | ND 4.04 4.72 | 4.38 | 5 of 9 (4.59) |
| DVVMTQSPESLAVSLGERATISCKSSQCVLYESRHKNSVAWYQQKAGQPPKLLIYWASIRESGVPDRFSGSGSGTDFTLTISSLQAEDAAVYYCQQYHRLPLSFGGGTKVEIK | 2.67 1.96 2.96 | 2.53 | 2 of 9 (3.94) |
| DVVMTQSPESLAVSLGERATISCKFSQSVLYESHNKNSVAWYQQKAGQPPKLLIYWASTRESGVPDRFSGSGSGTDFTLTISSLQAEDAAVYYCQQYHRNPLSFGGGTKVEIK | 0.18 0.64 0.58 | 0.47 | 1 of 9 (2.75) |
| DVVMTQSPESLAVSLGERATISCKSSQSVLYNSRLKNSVAWYQQKAGQPPKLLIYYASTRESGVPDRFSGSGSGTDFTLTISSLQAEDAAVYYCQQYHRLPLSFGGGTKVEIK | 0.33 0.84 0.51 | 0.56 | 0 of 9 |
| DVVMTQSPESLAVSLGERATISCKSSQSVLYESRNKNSVAWYQQKAGQPPKLLIYWAKTRESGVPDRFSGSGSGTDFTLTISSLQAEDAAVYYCNQYHRLPLGFGGGTKVEIK | 1.21 1.54 1.66 | 1.47 | 0 of 9 |
| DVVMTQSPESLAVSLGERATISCKSAQSVLYHSRNKNSVAWYQQKAGQPPKLLIYWASKRESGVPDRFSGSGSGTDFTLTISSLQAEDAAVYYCQQYHRLPLSFGGGTKVEIK | 2.54 2.62 2.63 | 2.60 | 2 of 9 (3.76) |
| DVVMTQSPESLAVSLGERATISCKDRQEVLYESRNKNSVAWYQQKAGQPPKLLIYWASTRESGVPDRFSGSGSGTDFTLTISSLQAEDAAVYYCQQYHRLPLSFGGGTKVEIK | 0.99 1.02 1.09 | 1.04 | 1 of 9 (3.89) |
| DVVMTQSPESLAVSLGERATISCGSSQSVLYESRNKTSVAWYQQKAGQPPKLLIYWASTRESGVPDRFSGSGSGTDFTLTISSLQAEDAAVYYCQEYHRLPLSFGGGTKVEIK | 4.40 3.74 5.33 | 4.49 | 2 of 9 (4.56) |
| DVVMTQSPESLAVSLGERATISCKSSQSVLYGSRNKNTVAWYQQKAGQPPKLLIYWASTRESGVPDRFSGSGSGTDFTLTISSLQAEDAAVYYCYQYHRLPLSFGGGTKVEIK | ND ND ND | ND | 1 of 9 (3.88) |
| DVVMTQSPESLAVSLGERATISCKSSQRVYYESRNKNSVAWYQQKAGQPPKLLIYWADTRESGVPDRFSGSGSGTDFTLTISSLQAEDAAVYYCQQYHRLPLSFGGGTKVEIK | 1.74 1.54 1.89 | 1.72 | 2 of 9 (3.83) |
| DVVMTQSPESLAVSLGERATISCKSIQSVLYESRNKNSVAWYQQKAGQPPKLLIYWASTWESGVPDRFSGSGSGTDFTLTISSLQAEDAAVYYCQFYHRLPLSFGGGTKVEIK | ND ND ND | ND | 1 of 9 (5.07) |
| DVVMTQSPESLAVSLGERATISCKSSQSVLYESVNKNSFAWYQQKAGQPPKLLIYWASTRESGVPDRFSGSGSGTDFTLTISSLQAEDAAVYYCNQYHRLPLSFGGGTKVEIK | ND 5.36 5.35 | 5.36 | 3 of 9 (4.76) |
| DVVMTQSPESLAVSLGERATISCKSSSSVLYYSRNKNSVAWYQQKAGQPPKLLIYSASTRESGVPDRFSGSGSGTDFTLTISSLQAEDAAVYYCQQYHRLPLSFGGGTKVEIK | -0.62 -0.21 -0.51 | -0.45 | 1 of 9 (4.70) |
| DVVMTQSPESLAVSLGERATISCKSAQSVLYISRNKNSVAWYQQKAGQPPKLLIYWASTRESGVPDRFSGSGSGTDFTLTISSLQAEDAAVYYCCQYHRLPLSFGGGTKVEIK | ND ND ND | ND | 0 of 9 |
| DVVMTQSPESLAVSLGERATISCKSSQSVLYESCNKWSVAWYQQKAGQPPKLLIYWNSTRESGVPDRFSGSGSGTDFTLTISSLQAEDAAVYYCQQYHRLPLSFGGGTKVEIK | ND ND ND | ND | 1 of 9 (3.15) |
| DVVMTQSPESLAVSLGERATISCKSSQSVKYESFNKNWVAWYQQKAGQPPKLLIYWASTRESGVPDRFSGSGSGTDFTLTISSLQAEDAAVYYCQQYHRLPLSFGGGTKVEIK | 3.71 2.57 ND | 3.14 | 2 of 9 (3.96) |

Extract of 2 entries:

| VL | log10 Kd (nM) by replicate | mean, log10 nM | signal with controls |
|---|---|---|---|
| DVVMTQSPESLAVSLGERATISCGSSQSVLYESRNKTSVAWYQQKAGQPPKLLIYWASTRESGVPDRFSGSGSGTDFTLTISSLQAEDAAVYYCQEYHRLPLSFGGGTKVEIK | 4.40 3.74 5.33 | 4.49 | 2 of 9 (4.56) |
| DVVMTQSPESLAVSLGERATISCKSIQSVLYESRNKNSVAWYQQKAGQPPKLLIYWASTWESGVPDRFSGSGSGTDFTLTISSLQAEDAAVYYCQFYHRLPLSFGGGTKVEIK | ND ND ND | ND | 1 of 9 (5.07) |

In this assay the parent's reference entry averaged 0.65; its copy inside this library read 1.68. Empty control strains, which show no peptide, gave a signal in 18% of pairings with library AAYL50; the median was 4.19 and 95% of these signals were weaker than 2.99. No background was subtracted. Also given: how often the same scFv was detected with the empty control strains, with their mean in brackets.

Reference: Engelhart et al. 2022, doi:10.1038/s41597-022-01779-4. File: FLAb, binding data.